The text below walks through data of patent publication US11691963B2, “6-heteroaryloxy benzimidazoles and azabenzimidazoles as JAK2 inhibitors” (Ajax Therapeutics, Inc., priority 2020, dated 2023).

Amino acid sequences for entries named in this document (tags omitted). Residues count along the entry.
UniProt O60674, 849-1124 Y1007F/Y1008F: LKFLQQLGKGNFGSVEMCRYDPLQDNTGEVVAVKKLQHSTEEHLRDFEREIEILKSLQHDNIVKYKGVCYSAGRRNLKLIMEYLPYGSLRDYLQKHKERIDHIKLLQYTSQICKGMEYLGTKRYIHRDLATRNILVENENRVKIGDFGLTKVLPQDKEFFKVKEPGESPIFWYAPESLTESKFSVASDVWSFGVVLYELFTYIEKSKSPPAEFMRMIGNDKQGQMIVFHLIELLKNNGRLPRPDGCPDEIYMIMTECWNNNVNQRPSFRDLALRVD

The assay addresses JAK2 (JH1domain-catalytic, Y1007F,Y1008F) kinase (Homo sapiens (Human), UniProt O60674, Y1007F/Y1008F). Briefly: biochemical.

Broadly, the Kd is the equilibrium constant for the complex coming apart. A higher Kd goes with weaker binding. `Cn1c(Nc2cc(C(C)(C)C)n([C@@H]3CCOC3)n2)nc2ncc(Oc3ccnc(NC(=O)C4CC4)c3)cc21` [Example I-109, (R)—N-(4-((2-((5-(tert-butyl)-1-(tetrahydrofuran-3-yl)-1H-pyrazol-3-yl)amino)-1-methyl-1H-imidazo[4,5-b]pyridin-6-yl)oxy)pyridin-2-yl)cyclopropanecarboxamide] came in with a Kd of under 10 nM.

Turning to `CC(=O)Nc1cc(Oc2cnc3nc(Nc4cc(C(C)(C)C)n([C@@H]5CCOC5)n4)n(C)c3c2)ccn1` [Example I-100, (R)—N-(4-((2-((5-(tert-butyl)-1-(tetrahydrofuran-3-yl)-1H-pyrazol-3-yl)amino)-1-methyl-1H-imidazo[4,5-b]pyridin-6-yl)oxy)pyridin-2-yl)acetamide], the equilibrium dissociation constant (Kd) was under 10 nM.

Turning to `CO[C@H]1CCOC[C@H]1n1cc(C(F)(F)F)cc(Nc2nc3ccc(Oc4ccnc(NC(C)=O)c4)cc3n2C)c1=O` (single isomer, unassigned) [Example I-60-a], the Kd lay in the range of 10 to 50 nM.

The compound `Cn1c(Nc2cc(C(C)(C)C)n([C@H]3CCOC3)n2)nc2ncc(Oc3ccnc(NC(=O)C4CC4)c3)cc21` [Example I-110, (S)—N-(4-((2-((5-(tert-butyl)-1-(tetrahydrofuran-3-yl)-1H-pyrazol-3-yl)amino)-1-methyl-1H-imidazo[4,5-b]pyridin-6-yl)oxy)pyridin-2-yl)cyclopropanecarboxamide] gave a Kd of under 10 nM.

For the compound `COc1c(Oc2ccnc(NC(C)=O)c2)cnc2nc(Nc3nc([C@H]4CCOC4)c(C(C)(C)C)s3)n(C)c12` (single isomer, unassigned) [Example I-195-a], the Kd is under 10 nM.

For the compound `COCCN1C(=O)C(C)(C)c2c1cc(Nc1nc3ccc(Oc4ccnc(NC(C)=O)c4)cc3n1C)cc2C(F)(F)F` [Example I-47, N-(4-((2-((1-(2-methoxyethyl)-3,3-dimethyl-2-oxo-4-(trifluoromethyl)indolin-6-yl)amino)-1-methyl-1H-benzo[d]imidazol-6-yl)oxy)pyridin-2-yl)acetamide], the Kd lay within 10 to 50 nM.

As for `CC(=O)Nc1cc(Oc2cnc3nc(Nc4cc(C(C)(C)C)n(C[C@@H]5CCN(CC(F)(F)F)C5)n4)n(C)c3c2C)ccn1` (single isomer, unassigned) [Example I-128-a], the Kd lay within 50 to 1000 nM.

Compound `CCN1CCN(Cc2ccc(Nc3nc4ccc(Oc5ccnc(C(=O)NC)c5)cc4n3C)cc2C(F)(F)F)CC1` [Example I-15, 4-((2-((4-((4-ethylpiperazin-1-yl)methyl)-3-(trifluoromethyl)phenyl)amino)-1-methyl-1H-benzo[d]imidazol-6-yl)oxy)-N-methylpicolinamide] displayed an equilibrium dissociation constant (Kd) of 10 to 50 nM.

Compound `CC(=O)Nc1cc(Oc2ccc3nc(Nc4cc(C5CC5)nn(C[C@@H]5COC(C)(C)C5)c4=O)n(C)c3c2)ccn1` (single isomer, unassigned) [Example I-87-a] came in with a Kd of 50 to 1000 nM.

Turning to `CC(=O)Nc1cc(Oc2cnc3nc(Nc4cc(C(C)(C)C)n([C@H]5CCOC5)n4)n(C)c3c2)ccn1` [Example I-99, (S)—N-(4-((2-((5-(tert-butyl)-1-(tetrahydrofuran-3-yl)-1H-pyrazol-3-yl)amino)-1-methyl-1H-imidazo[4,5-b]pyridin-6-yl)oxy)pyridin-2-yl)acetamide], the equilibrium dissociation constant (Kd) was under 10 nM.

The compound `CC(=O)Nc1cc(Oc2ccc3nc(Nc4ccc(Cl)c(C(F)(F)F)c4)n(C)c3c2)ccn1` [Example I-4, N-(4-((2-((4-chloro-3-(trifluoromethyl)phenyl)amino)-1-methyl-1H-benzo[d]imidazol-6-yl)oxy)pyridin-2-yl)acetamide] displayed a Kd of 50 to 1000 nM.

`CC(=O)Nc1cc(Oc2ccc3nc(Nc4cc5c(c(C(F)(F)F)c4)CCN(C(C)=O)C5)n(C)c3c2)ccn1` [Example I-46, N-(4-((2-((2-acetyl-5-(trifluoromethyl)-1,2,3,4-tetrahydroisoquinolin-7-yl)amino)-1-methyl-1H-benzo[d]imidazol-6-yl)oxy)pyridin-2-yl)acetamide] registered a Kd of 10 to 50 nM.

On to `CC(=O)Nc1cc(Oc2cnc3nc(Nc4cc(C(C)(C)C)n(C5CCN(CCF)CC5)n4)n(C)c3c2)ccn1` [Example I-113, N-(4-((2-((5-(tert-butyl)-1-(1-(2-fluoroethyl)piperidin-4-yl)-1H-pyrazol-3-yl)amino)-1-methyl-1H-imidazo[4,5-b]pyridin-6-yl)oxy)pyridin-2-yl)acetamide], for which the Kd was in the range of 10 to 50 nM.

As for `CC(=O)Nc1cc(Oc2ccc3nc(Nc4cc(C5CC5)cn([C@H]5CCCOC5)c4=O)n(C)c3n2)ccn1` (single isomer, unassigned) [Example I-67-b], the equilibrium dissociation constant (Kd) is under 10 nM.

`CNC(=O)c1cc(Oc2cnc3nc(Nc4cc(C(C)(C)C)n([C@H]5CCOC5)n4)n(C)c3c2)ccn1` [Example I-106, (S)-4-((2-((5-(tert-butyl)-1-(tetrahydrofuran-3-yl)-1H-pyrazol-3-yl)amino)-1-methyl-1H-imidazo[4,5-b]pyridin-6-yl)oxy)-N-methylpicolinamide] came in with a Kd of 50 to 1000 nM.

Take `CC(=O)Nc1cc(Oc2ccc3nc(Nc4cc(C(C)(C)C)nn4C)n(C)c3c2)ccn1` [Example I-17, N-(4-((2-((3-(tert-butyl)-1-methyl-1H-pyrazol-5-yl)amino)-1-methyl-1H-benzo[d]imidazol-6-yl)oxy)pyridin-2-yl)acetamide]: the Kd was 50 to 1000 nM.

`CC(=O)Nc1cc(Oc2ccc3nc(Nc4cc(C(C)(C)C)n([C@H]5CCOC5)n4)n(C)c3n2)ccn1` [Example I-22, (S)—N-(4-((2-((5-(tert-butyl)-1-(tetrahydrofuran-3-yl)-1H-pyrazol-3-yl)amino)-3-methyl-3H-imidazo[4,5-b]pyridin-5-yl)oxy)pyridin-2-yl)acetamide]: the dissociation constant (Kd) was under 10 nM.

Regarding `CC(=O)Nc1cc(Oc2ccc3nc(Nc4cc(C5CC5)cn([C@@H]5CC[C@@H]5O)c4=O)n(C)c3c2)ccn1` (single isomer, unassigned) [Example I-78-a], the dissociation constant Kd is under 10 nM.

As for `CC(=O)Nc1cc(Oc2ccc3nc(Nc4cc(N5CCC5)cn(C)c4=O)n(C)c3c2)ccn1` [Example I-82, N-(4-((2-((5-(azetidin-1-yl)-1-methyl-2-oxo-1,2-dihydropyridin-3-yl)amino)-1-methyl-1H-benzo[d]imidazol-6-yl)oxy)pyridin-2-yl)acetamide], the Kd lay in the range of 1000 to 5000 nM.

For the compound `COCCC(=O)Nc1cc(Oc2cnc3nc(Nc4cc(C(C)(C)C)n([C@@H]5CCOC5)n4)n(C)c3c2)ccn1` [Example I-118, (R)—N-(4-((2-((5-(tert-butyl)-1-(tetrahydrofuran-3-yl)-1H-pyrazol-3-yl)amino)-1-methyl-1H-imidazo[4,5-b]pyridin-6-yl)oxy)pyridin-2-yl)-3-methoxypropanamide], the Kd is under 10 nM.

Consider `CC(=O)Nc1cc(Oc2cnc3nc(Nc4cc(C(C)(C)C)n(C[C@@H]5CCN(C)CC5(F)F)n4)n(C)c3c2)ccn1` (single isomer, unassigned) [Example I-148-b], for which the Kd fell in the range of 1000 to 5000 nM.

In the case of `CC(=O)Nc1cc(Oc2cnc3nc(Nc4cc(C(C)(C)C)n([C@H]5C[C@H](O)C5)n4)n(C)c3c2C)ccn1` [Example I-122, N-(4-((2-((5-(tert-butyl)-1-((1r,3r)-3-hydroxycyclobutyl)-1H-pyrazol-3-yl)amino)-1,7-dimethyl-1H-imidazo[4,5-b]pyridin-6-yl)oxy)pyridin-2-yl)acetamide], the Kd was under 10 nM.

`COc1c(Oc2ccnc(NC(C)=O)c2)cnc2nc(Nc3cc(C(C)(C)C)n([C@H]4CN(C)CC4(F)F)n3)n(C)c12` (single isomer, unassigned) [Example I-172-b] had a Kd of 10 to 50 nM.
